scFv variants of Ab-14 (light chain) against a SARS-CoV-2 spike peptide

Binding partner: SARS-CoV-2 spike HR2 peptide, sequence PDVDLGDISGINAS.

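The starting antibody came from a phage panning campaign against this peptide. In library AAYL50, one, two or three CDR residues were substituted; doubles and triples were drawn at random. The scFvs were displayed on barcoded MATa yeast, the peptide on MATalpha yeast. The frequency of each diploid, read from paired DNA barcodes, reflects how well the two displayed proteins bind. Scores were corrected for input abundance and mapped to Kd with protein pairs of known affinity run in the same pool. The assay was run in three technical replicates.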

The variants keep the heavy chain, the linker and the frameworks of Ab-14 (scFv order VH, three GGGGS repeats, VL).
VH: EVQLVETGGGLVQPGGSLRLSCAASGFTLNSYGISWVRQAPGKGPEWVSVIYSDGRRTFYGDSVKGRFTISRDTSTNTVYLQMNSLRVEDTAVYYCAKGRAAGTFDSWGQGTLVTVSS
VL: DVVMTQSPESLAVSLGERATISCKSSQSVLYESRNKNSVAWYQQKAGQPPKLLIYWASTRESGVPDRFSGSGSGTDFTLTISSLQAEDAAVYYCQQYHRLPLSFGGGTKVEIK

The parent's light chain CDRs are KSSQSVLYESRNKNSVA, WASTRES, QQYHRLPLS; each variant's own CDRs replace them letter for letter. Values are log10 of the apparent Kd in nM; lower means stronger binding. "n.d." marks a missing value. The strain was present, yet no cells mated with the target were sequenced in that replicate, which points to weak or no binding. As a blank, each scFv also met three strains without target: over library AAYL50, 18% of these pairings were detected, typically at 4.19 and seldom below 2.99. Also given: how often the same scFv was detected with the empty control strains, with their mean in brackets.

CDR-L1	CDR-L2	CDR-L3	log10 Kd (nM) by replicate	control signals
KSSQSVVYESPNKNSVI	WASTRES	QQYHRLPLS	2.91 / n.d. / n.d.	1/9 (4.31)
KSSQSVLYESRNKNHVA	IASTRES	QQYHRLSLS	n.d. / n.d. / 3.93	4/9 (4.73)
KSSQSVLYESRNCNSVA	WALWRES	QQYHRLPLS	4.40 / n.d. / n.d.	1/9 (3.78)
KSSQSVLYESRNKKSVA	WNSTRES	QQVHRLPLS	n.d. / n.d. / n.d.	0/9
KSSQSLLYASRNKNSVA	WAITRES	QQYHRLPLS	2.31 / 2.18 / 2.69	3/9 (4.33)
KSSQSVLYESRNKNSVA	WASTVER	QQYHRLPLS	n.d. / n.d. / n.d.	1/9 (2.52)
ASSQSVLYESRNWNSVH	WASTRES	QQYHRLPLS	n.d. / n.d. / n.d.	1/9 (2.69)
KSSQSVLYESPNKNSVA	WASTREE	QQYHRLPVS	1.21 / 1.47 / 1.38	0/9
KSSQHVLYESRNKYSVA	WASTRES	QQYHRLPRS	n.d. / n.d. / n.d.	0/9
KSSQSVLHESRNKNSVA	AASTRES	QQYMRLPLS	0.42 / 0.74 / 0.60	3/9 (4.65)
KSSQSVLYTSRNKQSVA	WASTREV	QQYHRLPLS	1.33 / 1.23 / 1.37	0/9
NSSQDVLYESRNKNSVA	WASTRES	QMYHRLPLS	2.67 / 2.46 / 2.95	4/9 (4.58)
KSSQYVLYESREKNSVA	WASARES	QQYHRLPLS	n.d. / n.d. / n.d.	0/9
KSSQSVLYESRNKNSVA	WASTRES	QYYHRAFLS	n.d. / n.d. / n.d.	0/9
KSSQSVLYESRNKNSVA	WASTGES	QQYHILPTS	n.d. / 2.56 / 3.87	1/9 (3.75)
KSSLIVLYESRNKNSVA	WASTRES	KQYHRLPLS	n.d. / n.d. / n.d.	1/9 (3.20)
KSSQSVLYESRNKNSVV	KASTRES	QQYHRWPLS	n.d. / n.d. / n.d.	0/9
KSSQSVLYESRNKNSVA	WASTYES	QQYVKLPLS	n.d. / n.d. / n.d.	5/9 (4.54)
CSSQSVLWESRNKNSVA	WASTRES	QAYHRLPLS	n.d. / n.d. / 3.86	1/9 (2.66)
KSTQSVLYESRNKNSVA	WALTRSS	QQYHRLPLS	6.23 / n.d. / n.d.	5/9 (4.25)
KSSQSDLYESRNKNSVA	WASTRES	QLYSRLPLS	1.84 / 1.89 / 1.92	4/9 (3.76)
SSSQCVLYESFNKNSVA	WASTRES	QQYHRLPLS	n.d. / 3.30 / n.d.	2/9 (4.42)
KMSQSVLYESRNKNSVA	WYSTYES	QQYHRLPLS	n.d. / n.d. / n.d.	0/9
KSSQSVNYVSRVKNSVA	WASTRES	QQYHRLPLS	1.85 / 2.43 / 2.17	0/9
KSSQSVLYEFRNRYSVA	WASTRES	QQYHRLPLS	1.48 / 1.20 / 1.83	0/9
KNSQSVLYESRNINSDA	WASTRES	QQYHRLPLS	1.25 / 1.32 / 1.21	1/9 (5.59)
KSSQSVLYESRNKNSVA	WASTRES	QQPHRLPTL	0.86 / 1.02 / 0.89	0/9
KSSQSVLYESYNKSSVA	WASTRES	QQYHRMPLS	0.42 / 0.65 / 0.46	2/9 (5.06)
KSSQSVLYEQRNKNSVA	WASTRES	QQYHKLPLS	1.70 / 1.62 / 1.72	6/9 (5.35)
KSSQSVLYESRNKNSVA	WASVRES	QQFHRLPLS	2.96 / 2.96 / 4.63	3/9 (4.12)
GSSQSVLYESFNKNSVA	WASTRES	QQRHRLPLS	1.86 / 1.80 / 2.00	2/9 (4.95)
KSSQSVLYERRNKNSVD	WASTRES	QQYHRLPLS	n.d. / n.d. / 3.33	0/9
KSSQSVLYESRNKNSVA	HMSTRES	EQYHRLPLS	0.32 / 0.39 / 0.30	0/9
KSSQSVLCESRNKASVA	WQSTRES	QQYHRLPLS	5.09 / n.d. / n.d.	2/9 (4.30)

For reference, the parent read 0.65 as the reference entry and 1.68 as a member of this library.

From the AlphaSeq antibody data of Engelhart et al. 2022 (doi:10.1038/s41597-022-01779-4), copy in the FLAb collection.